Source: ChEMBL document CHEMBL1135572, “Kinetic studies of the binding of acridinecarboxamide topoisomerase poisons to DNA: implications for mode of binding of ligands with uncharged chromophores” (J Med Chem, 2002)

Key:
[1] = system: Nucleic Acid; assay: Binding constant to Poly (dA-dT) determined by ethidium bromide displacement; format: nucleic-acid assay
[2] = system: Nucleic Acid; assay: Binding constant to Poly (dG-dC) determined by ethidium bromide displacement; format: nucleic-acid assay

| Compound | Log K [1] | Log K [2] |
| --- | --- | --- |
| Cc1c2ccccc2nc2c(C(=O)NCCN(C)C)cccc12 | 6.48 | 5.97 |
| CN(C)CCCCNC(=O)c1cccc2cc3ccccc3nc12 | 6.47 | 6.4 |
| CN(C)CCCCNC(=O)c1cccc2nc3ccccc3nc12 | 6.3 | 6.34 |
| CN(C)CCNC(=O)c1cccc2cc3ccccc3nc12 | 6.12 | 6.54 |
